Laboratory results from patent publication US11633413B2, “Composition for preventing or improving menopausal symptom comprising novel ginsenoside” (AMOREPACIFIC CORPORATION, priority 2019, dated 2023).

Protein sequences, listed by entry. Tags and fused reporters are not part of them.
UniProt Q92731, whole entry: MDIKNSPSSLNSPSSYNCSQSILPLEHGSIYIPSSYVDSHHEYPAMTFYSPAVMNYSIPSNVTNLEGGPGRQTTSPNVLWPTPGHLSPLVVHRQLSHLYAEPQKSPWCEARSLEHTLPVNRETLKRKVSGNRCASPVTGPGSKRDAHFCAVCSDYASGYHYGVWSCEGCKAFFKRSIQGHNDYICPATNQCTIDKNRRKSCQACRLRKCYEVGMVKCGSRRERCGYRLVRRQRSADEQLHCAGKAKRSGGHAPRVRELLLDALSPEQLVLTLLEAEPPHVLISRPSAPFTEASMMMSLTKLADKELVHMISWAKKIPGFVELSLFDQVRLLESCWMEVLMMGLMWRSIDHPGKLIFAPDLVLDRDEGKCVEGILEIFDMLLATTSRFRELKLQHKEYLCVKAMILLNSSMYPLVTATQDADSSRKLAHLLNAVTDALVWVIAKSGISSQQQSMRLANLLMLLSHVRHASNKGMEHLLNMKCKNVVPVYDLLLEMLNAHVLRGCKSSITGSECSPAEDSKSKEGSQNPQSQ

Target: estrogen receptor ERβ (Homo sapiens, UniProt Q92731)
Assay: human ERβ reporter assay (ERE-luc, Indigo Bioscience #IB00421-48P)
Details: Test Example 1, 10 μg/mL for 24 hours, FIG. 12, FIG. 14

C[C@]12CC[C@@H]3c4ccc(O)cc4CC[C@H]3[C@@H]1CC[C@@H]2O [17β-estradiol, 17β-Estradiol, reference compound]
increase of the activity of the estrogen receptor ERβ: superior effect of activating ERβ
increase of the activity of the estrogen receptor ERβ (listed as 173-estradiol): increases the activity of both ERα and ERβ
